{
  "sequences": {"note": "Protein sequences, listed by entry. Tags and fused reporters are not part of them. Residues count along the entry.", "UniProt F1LX96, 1-639": "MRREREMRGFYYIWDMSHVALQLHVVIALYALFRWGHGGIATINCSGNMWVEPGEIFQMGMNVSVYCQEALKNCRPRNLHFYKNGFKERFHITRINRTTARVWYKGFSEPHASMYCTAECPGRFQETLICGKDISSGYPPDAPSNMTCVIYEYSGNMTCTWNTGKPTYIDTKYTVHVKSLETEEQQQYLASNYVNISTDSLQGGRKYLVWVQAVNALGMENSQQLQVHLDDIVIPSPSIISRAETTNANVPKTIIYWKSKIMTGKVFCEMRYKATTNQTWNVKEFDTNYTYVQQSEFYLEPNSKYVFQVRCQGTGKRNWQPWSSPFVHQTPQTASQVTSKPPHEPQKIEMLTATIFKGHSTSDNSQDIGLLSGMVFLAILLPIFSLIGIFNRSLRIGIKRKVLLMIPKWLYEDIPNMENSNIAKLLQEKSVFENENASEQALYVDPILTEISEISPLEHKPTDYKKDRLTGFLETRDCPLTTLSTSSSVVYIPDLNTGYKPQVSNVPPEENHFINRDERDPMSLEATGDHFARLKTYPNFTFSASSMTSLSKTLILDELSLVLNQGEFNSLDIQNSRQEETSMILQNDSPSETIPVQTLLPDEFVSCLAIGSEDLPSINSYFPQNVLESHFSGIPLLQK"},
  "source": "patent US10023614B2",
  "target": "Rat IL-23R (Rattus norvegicus, UniProt F1LX96)",
  "experiment": "Rat IL-23R Competitive Binding ELISA",
  "conditions": "read-out: Cross Reactivity, ELISA rat IL23R IL23",
  "data": [
    {"smiles": "CC(=O)N[C@H]1CSSC[C@@H](C(=O)N[C@@H](Cc2ccc(O)cc2)C(=O)N[C@@H](Cc2c[nH]c3ccccc23)C(=O)N[C@@H](CCCNC(N)=O)C(=O)N[C@@H](CN)C(=O)N[C@@H](Cc2ccccc2)C(=O)NCC(=O)NCCOCC(=O)N[C@H](CCCCN)C(N)=O)NC(=O)[C@H](CCC(N)=O)NC(=O)[C@H](Cc2c[nH]c3ccccc23)NC(=O)[C@H]([C@@H](C)O)NC(=O)[C@H](CCC(N)=O)NC1=O", "values": [
      {"measurement": "IC50", "result": "1 to 10", "unit": "µM"}
    ]}
  ]
}
